Patent publication US6303751A, “Human metabotropic glutamate receptor and related DNA compounds” (Eli Lilly and Company, priority 1995, dated 2001)

Protein sequences, listed by entry. Tags and fused reporters are not part of them. Residues count along the entry.
UniProt Q13255, 19-1194 S593P/S993P: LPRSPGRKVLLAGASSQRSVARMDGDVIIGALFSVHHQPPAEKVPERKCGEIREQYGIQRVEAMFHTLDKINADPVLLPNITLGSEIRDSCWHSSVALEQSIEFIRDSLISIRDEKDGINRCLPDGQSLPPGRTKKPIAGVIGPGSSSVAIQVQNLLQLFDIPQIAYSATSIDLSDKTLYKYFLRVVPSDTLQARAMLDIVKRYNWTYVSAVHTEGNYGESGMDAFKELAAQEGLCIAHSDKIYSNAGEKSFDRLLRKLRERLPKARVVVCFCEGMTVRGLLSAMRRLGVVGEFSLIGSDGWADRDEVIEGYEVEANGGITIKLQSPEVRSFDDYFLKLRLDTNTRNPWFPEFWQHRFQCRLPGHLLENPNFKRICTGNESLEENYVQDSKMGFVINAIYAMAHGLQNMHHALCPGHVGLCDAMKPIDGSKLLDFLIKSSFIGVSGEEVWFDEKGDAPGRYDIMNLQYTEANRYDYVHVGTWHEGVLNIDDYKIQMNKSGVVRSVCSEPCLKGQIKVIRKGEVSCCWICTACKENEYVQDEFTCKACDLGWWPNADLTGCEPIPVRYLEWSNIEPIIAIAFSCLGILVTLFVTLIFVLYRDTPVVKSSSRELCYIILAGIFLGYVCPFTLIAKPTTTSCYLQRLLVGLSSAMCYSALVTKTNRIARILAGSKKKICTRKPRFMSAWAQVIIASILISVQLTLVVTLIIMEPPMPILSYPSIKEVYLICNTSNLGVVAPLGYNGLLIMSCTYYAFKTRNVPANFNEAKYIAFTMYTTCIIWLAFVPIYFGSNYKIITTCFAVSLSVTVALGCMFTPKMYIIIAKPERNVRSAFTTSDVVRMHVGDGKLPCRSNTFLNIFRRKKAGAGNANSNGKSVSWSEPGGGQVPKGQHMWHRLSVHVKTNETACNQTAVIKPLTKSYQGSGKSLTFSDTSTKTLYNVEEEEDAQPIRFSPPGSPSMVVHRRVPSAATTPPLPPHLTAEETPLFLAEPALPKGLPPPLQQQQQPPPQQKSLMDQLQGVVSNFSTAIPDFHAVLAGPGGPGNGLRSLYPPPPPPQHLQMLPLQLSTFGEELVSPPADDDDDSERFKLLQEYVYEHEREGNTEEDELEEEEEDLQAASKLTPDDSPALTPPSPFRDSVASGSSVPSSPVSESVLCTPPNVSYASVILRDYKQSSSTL

Target: T1, HSmGluR1 receptor (human metabotropic glutamate receptor) expressed in Xenopus oocytes (Homo sapiens, UniProt Q13255)
T1 construct: RNA transcripts encoding the HSmGluR1 receptor were produced by enzymatic transcription from pRS117; expressed in transfected cells; host or cells: Xenopus laevis oocytes injected with in vitro transcribed RNA from pRS117
Assay: Electrophysiological recording of HSmGluR1 receptor expressed in Xenopus oocytes
Type: cell-based

Structure (SMILES): N[C@@H](Cn1oc(=O)[nH]c1=O)C(=O)O [quisqualate]
- EC50: 400 nM
